Values of other authors in US10898570B2, “Combination therapy with an anti-HER2 antibody-drug conjugate and a Bcl-2 inhibitor” (Genentech, Inc., priority 2015, dated 2021).
Like-named read-outs stand apart in the source and are kept apart here.

Assays:
[1] = test system: HER2-positive advanced breast cancer; conditions: 3.6 mg/kg q3w, compared to lapatinib plus capecitabine; cited from earlier work
[2] = cited from earlier work

**Q.** With trastuzumab-MCC-DM1 [T-DM1] as the substance, how does the toxicity [1] read?
**A.** less toxicity

**Q.** What about the tolerability ([2]; 3.6 mg/kg q3w) of the same substance?
**A.** well tolerated

**Q.** And the “maximum tolerated dose (MTD)” value ([2]; IV infusion every 3 weeks (q3w))?
**A.** 3.6 mg/kg

**Q.** What about the “DLT (Dose-Limiting Toxicity)” value ([2]; patients treated at 4.8 mg/kg) of the same substance?
**A.** transient thrombocytopenia

**Q.** And the tolerability ([2]; weekly dosing with 2.4 mg/kg)?
**A.** well tolerated
